Substrate in this series: O=C(O)C(O)Cc1ccc(O)c(O)c1
Nature of the series: cells, lysate or membranes named. Particulars: 5 min incubation, concentrations in Table 1, 37.0 °C.

B1: human OAT1 (Homo sapiens) (protein)
chain: MAFNDLLQQVGGVGRFQQIQVTLVVLPLLLMASHNTLQNFTAAIPTHHCRPPADANLSKNGGLEVWLPRDRQGQPESCLRFTSPQWGLPFLNGTEANGTGATEPCTDGWIYDNSTFPSTIVTEWDLVCSHRALRQLAQSLYMVGVLLGAMVFGYLADRLGRRKVLILNYLQTAVSGTCAAFAPNFPIYCAFRLLSGMALAGISLNCMTLNVEWMPIHTRACVGTLIGYVYSLGQFLLAGVAYAVPHWRHLQLLVSAPFFAFFIYSWFFIESARWHSSSGRLDLTLRALQRVARINGKREEGAKLSMEVLRASLQKELTMGKGQASAMELLRCPTLRHLFLCLSMLWFATSFAYYGLVMDLQGFGVSIYLIQVIFGAVDLPAKLVGFLVINSLGRRPAQMAALLLAGICILLNGVIPQDQSIVRTSLAVLGKGCLAASFNCIFLYTGELYPTMIRQTGMGMGSTMARVGSIVSPLVSMTAELYPSMPLFIYGAVPVAASAVTVLLPETLGQPLPDTVQDLESRWAPTQKEAGIYPRKGKQTRQQQEHQKYMVPLQASAQEKNGL
With B1, the Vmax – broadly, the rate approached at saturating substrate – (other: human renal basolateral uptake OAT1) stood at 0.00104 ± 2.2e-05 µmol/min/mg.

B2: human OAT3 (Homo sapiens) (protein)
chain: MTFSEILDRVGSMGHFQFLHVAILGLPILNMANHNLLQIFTAATPVHHCRPPHNASTGPWVLPMGPNGKPERCLRFVHPPNASLPNDTQRAMEPCLDGWVYNSTKDSIVTEWDLVCNSNKLKEMAQSIFMAGILIGGLVLGDLSDRFGRRPILTCSYLLLAASGSGAAFSPTFPIYMVFRFLCGFGISGITLSTVILNVEWVPTRMRAIMSTALGYCYTFGQFILPGLAYAIPQWRWLQLTVSIPFFVFFLSSWWTPESIRWLVLSGKSSKALKILRRVAVFNGKKEEGERLSLEELKLNLQKEISLAKAKYTASDLFRIPMLRRMTFCLSLAWFATGFAYYSLAMGVEEFGVNLYILQIIFGGVDVPAKFITILSLSYLGRHTTQAAALLLAGGAILALTFVPLDLQTVRTVLAVFGKGCLSSSFSCLFLYTSELYPTVIRQTGMGVSNLWTRVGSMVSPLVKITGEVQPFIPNIIYGITALLGGSAALFLPETLNQPLPETIEDLENWSLRAKKPKQEPEVEKASQRIPLQPHGPGLGSS
Take B2: the maximal velocity (Vmax) (other: human renal basolateral uptake OAT3) is 0.000171 µmol/min/mg.

B3: human OAT4 (Homo sapiens) (protein)
chain: MAFSKLLEQAGGVGLFQTLQVLTFILPCLMIPSQMLLENFSAAIPGHRCWTHMLDNGSAVSTNMTPKALLTISIPPGPNQGPHQCRRFRQPQWQLLDPNATATSWSEADTEPCVDGWVYDRSVFTSTIVAKWDLVCSSQGLKPLSQSIFMSGILVGSFIWGLLSYRFGRKPMLSWCCLQLAVAGTSTIFAPTFVIYCGLRFVAAFGMAGIFLSSLTLMVEWTTTSRRAVTMTVVGCAFSAGQAALGGLAFALRDWRTLQLAASVPFFAISLISWWLPESARWLIIKGKPDQALQELRKVARINGHKEAKNLTIEVLMSSVKEEVASAKEPRSVLDLFCVPVLRWRSCAMLVVNFSLLISYYGLVFDLQSLGRDIFLLQALFGAVDFLGRATTALLLSFLGRRTIQAGSQAMAGLAILANMLVPQDLQTLRVVFAVLGKGCFGISLTCLTIYKAELFPTPVRMTADGILHTVGRLGAMMGPLILMSRQALPLLPPLLYGVISIASSLVVLFFLPETQGLPLPDTIQDLESQKSTAAQGNRQEAVTVESTSL
In the case of B3, the maximal velocity (Vmax) (other: human renal apical uptake OAT4) came to 0.0012 ± 0.00014 µmol/min/mg.

B4: rat Oat3 (Rattus norvegicus) (protein)
chain: MTFSEILDRVGSMGPFQYLHVTLLALPVLGIANHNLLQIFTATTPVHHCRPPPNASIGPWVLPLDPNGKPEKCLRFVHLPNASLPNDTQRATEPCLDGWIYNSTRDTIVIEWDLVCSSNKLKEMAQSIFMAGILVGGPVIGELSDRFGRKPILTWSYLMLAASGSGAAFSPSLPVYMIFRFLCGCSISGISLSTVILNVEWVPTSMRAISSTSIGYCYTIGQFILSGLAYAIPQWRWLQLTSSAPFFIFSLLSWWVPESIRWLVLSGKYSKALKTLQRVATFNGKKEEGKKLTIEELKFNLQKDITSAKVKYGLSDLFRVSILRRVTFCLSLAWFSTGFAYYSLAMGVEEFGVNIYILQIIFGGVDIPAKFITILSLSYLGRRITQSFLLLLAGGAILALIFVPSEMQLLRTALAVFGKGCLSGSFSCLFLYTSELYPTVLRQTGMGISNVWARVGSMIAPLVKITGELQPFIPNVIFGTTALLGGSAAFFLLETLNRPLPETIEDIQNWHKQVQKTKQESEAEKASQIIPLKTGG
For B4, the maximal velocity (Vmax) (other: rat renal basolateral uptake Oat3) stood at 0.000252 µmol/min/mg.

B5: rat Oat2 (Rattus norvegicus) (protein)
chain: MGFEDLLDKVGGFGPFQLRNLVLMALPRMLLPMHFLLPVFMAAVPAHHCALPGAPANLSHQDLWLEAHLPRETDGSFSSCLRFAYPQTVPNVTLGTEVSNSGEPEGEPLTVPCSQGWEYDRSEFSSTIATEWDLVCQQRGLNKITSTCFFIGVLVGAVVYGYLSDRFGRRRLLLVAYVSSLVLGLMSAASINYIMFVVTRTLTGSALAGFTIIVLPLELEWLDVEHRTVAGVISTVFWSGGVLLLALVGYLIRSWRWLLLAATLPCVPGIISIWWVPESARWLLTQGRVEEAKKYLLSCAKLNGRPVGEGSLSQEALNNVVTMERALQRPSYLDLFRTSQLRHISLCCMMVWFGVNFSYYGLTLDVSGLGLNVYQTQLLFGAVELPSKIMVYFLVRRLGRRLTEAGMLLGAALTFGTSLLVSLETKSWITALVVVGKAFSEAAFTTAYLFTSELYPTVLRQTGLGLTALMGRLGASLAPLAALLDGVWLLLPKVAYGGIALVAACTALLLPETKKAQLPETIQDVERKSTQEEDV
Consider B5, for which, where the note is “other: rat hepatic sinusoidal uptake Oat2 (also renal apical)”, the maximal velocity (Vmax) stood at 0.00144 ± 7.4e-05 µmol/min/mg.

B6: rat Oat1 (Rattus norvegicus) (protein)
chain: MAFNDLLKQVGGVGRFQLIQVTMVVAPLLLMASHNTLQNFTAAIPPHHCRPPANANLSKDGGLEAWLPLDKQGQPESCLRFTSPQWGPPFYNGTEANGTRVTEPCIDGWVYDNSTFPSTIVTEWNLVCSHRAFRQLAQSLYMVGVLLGAMVFGYLADRLGRRKVLILNYLQTAVSGTCAAYAPNYTVYCVFRLLSGMSLASIAINCMTLNVEWMPIHTRAYVGTLIGYVYSLGQFLLAGIAYAVPHWRHLQLVVSVPFFIAFIYSWFFIESARWYSSSGRLDLTLRALQRVARINGKQEEGAKLSIEVLRTSLQKELTLSKGQASAMELLRCPTLRHLFLCLSMLWFATSFAYYGLVMDLQGFGVSMYLIQVIFGAVDLPAKFVCFLVINSMGRRPAQMASLLLAGICILVNGIIPKSHTIIRTSLAVLGKGCLASSFNCIFLYTGELYPTVIRQTGLGMGSTMARVGSIVSPLVSMTAEFYPSMPLFIFGAVPVVASAVTALLPETLGQPLPDTVQDLKSRSRGKQNQQQQEQQKQMMPLQASTQEKNGL
As to B6, the Vmax (other: rat renal basolateral uptake Oat1) worked out at 0.000636 µmol/min/mg.

B7: human OAT2 (Homo sapiens) (protein)
chain: MGFEELLEQVGGFGPFQLRNVALLALPRVLLPLHFLLPIFLAAVPAHRCALPGAPANFSHQDVWLEAHLPREPDGTLSSCLRFAYPQALPNTTLGEERQSRGELEDEPATVPCSQGWEYDHSEFSSTIATEWDLVCEQKGLNRAASTFFFAGVLVGAVAFGYLSDRFGRRRLLLVAYVSTLVLGLASAASVSYVMFAITRTLTGSALAGFTIIVMPLELEWLDVEHRTVAGVLSSTFWTGGVMLLALVGYLIRDWRWLLLAVTLPCAPGILSLWWVPESARWLLTQGHVKEAHRYLLHCARLNGRPVCEDSFSQEAVSKVAAGERVVRRPSYLDLFRTPRLRHISLCCVVVWFGVNFSYYGLSLDVSGLGLNVYQTQLLFGAVELPSKLLVYLSVRYAGRRLTQAGTLLGTALAFGTRLLVSSDMKSWSTVLAVMGKAFSEAAFTTAYLFTSELYPTVLRQTGMGLTALVGRLGGSLAPLAALLDGVWLSLPKLTYGGIALLAAGTALLLPETRQAQLPETIQDVERKSAPTSLQEEEMPMKQVQN
Regarding B7, the Vmax (other: human hepatic sinusoidal uptake OAT2 (also renal basolateral)) was found to be 0.00747 ± 0.000308 µmol/min/mg.

Values taken from publication PMC9127186, “Molecular Basis Underlying Hepatobiliary and Renal Excretion of Phenolic Acids of Salvia miltiorrhiza Roots (Danshen)” (Frontiers in Pharmacology, 2022).
